Ab-14 heavy chain CDR variants: yeast mating affinities

Target: peptide PDVDLGDISGINAS, taken from heptad repeat 2 (HR2) of SARS-CoV-2 spike.

Parent scFv Ab-14: VH joined to VL by three GGGGS repeats. Changes lie in the heavy chain CDRs alone.
VH: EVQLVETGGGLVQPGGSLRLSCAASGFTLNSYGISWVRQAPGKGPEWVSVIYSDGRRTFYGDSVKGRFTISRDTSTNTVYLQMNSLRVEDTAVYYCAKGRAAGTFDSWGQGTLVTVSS
VL: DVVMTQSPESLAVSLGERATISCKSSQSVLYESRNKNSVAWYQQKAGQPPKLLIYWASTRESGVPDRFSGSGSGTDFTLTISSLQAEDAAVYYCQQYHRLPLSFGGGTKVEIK

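The starting antibody came from a phage panning campaign against this peptide. In library AAYL49, one, two or three CDR residues were substituted; doubles and triples were drawn at random. The scFvs were displayed on barcoded MATa yeast, the peptide on MATalpha yeast. The frequency of each diploid, read from paired DNA barcodes, reflects how well the two displayed proteins bind. Each replicate has its own calibration line, from reference interactions of the BCL2 family. There are three technical replicates.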

Changes read parent residue, position, new residue, counted from the first residue of the VH shown. Each Kd is an estimate from the mating assay, the geometric mean of the replicates in which the pair was seen; lower is stronger. "no signal" means that the variant was in the library but no mating with the target was seen in any replicate; the authors take this as a sign of poor binding, and no number exists. Parent in this assay: reference entry 4.4 nM, copy in this library 13 µM (one replicate of three). As a blank, each scFv also met three strains without target: over library AAYL49, 15% of these pairings were detected, typically at 11 µM and seldom below 680 nM. Also given: how often the same scFv was detected with the empty control strains.

changes | Kd (apparent) | replicates with signal | control signals
Y52T/T58M/S107R | no signal | 0 of 3 | 0 of 9
Y32C/Y52C | no signal | 0 of 3 | 1 of 9
L29K/S35H/D54V | no signal | 0 of 3 | 1 of 9
S35F/R56N/F105E | no signal | 0 of 3 | 1 of 9
G26M/S63A/R100N | 560 nM | 2 of 3 | 2 of 9
Y52D/D62Q | 2.0 µM | 1 of 3 | 1 of 9
G26D/N30G/G61R | 1.3 µM | 2 of 3 | 1 of 9
Y52I/G99V/S107D | 190 nM | 1 of 3 | 0 of 9
L29A/R100I | 3.2 µM | 2 of 3 | 1 of 9
L29W/G33K/D54W | no signal | 0 of 3 | 0 of 9
V50S/I51K/F105M | no signal | 0 of 3 | 1 of 9
G26N/N30K/R56K | 58 nM | 3 of 3 | 0 of 9
I34Q/T58F | 7.5 µM | 2 of 3 | 2 of 9
Y32R/G33E/S63L | no signal | 0 of 3 | 1 of 9
S31F/S63Y/A102G | 1.0 µM | 2 of 3 | 2 of 9
F27E/V50K/S107F | no signal | 0 of 3 | 1 of 9
S35F/A101E/F105A | no signal | 0 of 3 | 0 of 9
T28E/Y32C | 200 nM | 3 of 3 | 1 of 9
I34L/G55D | 27 µM | 2 of 3 | 4 of 9
R57M/T58P | 5.2 µM | 2 of 3 | 4 of 9
G33M/R57Q/T104K | 12 µM | 1 of 3 | 0 of 9
Y52K/S63C/D106F | 53 µM | 1 of 3 | 2 of 9
G33K/R57H/T104H | no signal | 0 of 3 | 0 of 9
V50G/I51K/Y52E | no signal | 0 of 3 | 1 of 9
T28L/G33Y/Y60V | 1.4 µM | 1 of 3 | 1 of 9
L29E/N30Y/S31P | 6.5 µM | 1 of 3 | 1 of 9
L29G/S63E/G99D | no signal | 0 of 3 | 1 of 9
R56V/T58R/A102W | 7.1 µM | 3 of 3 | 3 of 9
Y32S/Y52K/R56Y | 690 nM | 1 of 3 | 0 of 9
N30K/S35G/G103L | no signal | 0 of 3 | 2 of 9
D62F/R100F/A101R | no signal | 0 of 3 | 0 of 9
S35I/R56H/G99W | 16 µM | 2 of 3 | 5 of 9
I51G/G55M/F59Y | 60 µM | 1 of 3 | 0 of 9
Y32W/F105D | 980 nM | 1 of 3 | 0 of 9
G26K/K65L/A101G | 37 nM | 3 of 3 | 2 of 9
F27W/A101K | 36 µM | 2 of 3 | 6 of 9
S53A/R56V/S107T | 9.7 nM | 3 of 3 | 1 of 9
K65E/A102C/F105H | no signal | 0 of 3 | 1 of 9
D54A/R100G | 9.6 µM | 2 of 3 | 4 of 9
T28S/S35G/K65A | no signal | 0 of 3 | 1 of 9
Y52K/F105K | no signal | 0 of 3 | 3 of 9
F59D/G103H/S107I | no signal | 0 of 3 | 0 of 9
G26F/G55K/R57I | no signal | 0 of 3 | 1 of 9
G33P/R57H/R100E | no signal | 0 of 3 | 0 of 9
G55P/F59E/Y60G | no signal | 0 of 3 | 1 of 9
I34T/I51Q/S107Y | 220 µM | 3 of 3 | 6 of 9
Y32G/F59W/A102Y | no signal | 0 of 3 | 0 of 9
I51F/R56A | 5.5 µM | 1 of 3 | 1 of 9
T28G/F59C/G103K | 2.4 µM | 2 of 3 | 2 of 9
S31C/G33N/G99Q | 63 µM | 2 of 3 | 6 of 9
S35G/V50G/T58Q | 500 µM | 1 of 3 | 1 of 9
T28R/A102I | no signal | 0 of 3 | 0 of 9
T28M/Y52W/S63D | 16 µM | 2 of 3 | 5 of 9
A101T/D106N | 4.5 nM | 3 of 3 | 2 of 9
Y32W/V64K/G103N | no signal | 0 of 3 | 3 of 9
S31F/R100G/A101S | 1.8 µM | 3 of 3 | 0 of 9
G26V/Y32L/G61D | 36 µM | 1 of 3 | 2 of 9
I34T/G103K | 220 µM | 1 of 3 | 2 of 9
T28W/Y32D/R100D | 9.2 µM | 2 of 3 | 8 of 9
Y32V/V50W/K65S | 75 nM | 1 of 3 | 1 of 9
Y32P/D106R | 29 µM | 2 of 3 | 4 of 9
G26H/K65F/A102F | no signal | 0 of 3 | 3 of 9
R56H/K65V/F105T | no signal | 0 of 3 | 0 of 9
S31K/G55A/R100H | no signal | 0 of 3 | 0 of 9
T28Q/Y32P/S107H | 180 µM | 1 of 3 | 2 of 9
N30F/I51L/Y60M | 2.7 µM | 2 of 3 | 3 of 9
G55A/Y60E/K65M | no signal | 0 of 3 | 1 of 9
G55L/D62Q/A101N | no signal | 0 of 3 | 0 of 9
F27C/G33R/A101R | 1.2 µM | 1 of 3 | 3 of 9
G55F/F59G/A101L | no signal | 0 of 3 | 3 of 9
N30Y/S31N/D106V | 24 nM | 3 of 3 | 0 of 9
T28W/R57Q/S63W | no signal | 0 of 3 | 0 of 9
G26C/Y32Q/R56H | 1.6 µM | 1 of 3 | 3 of 9
L29Q/G103E/D106C | no signal | 0 of 3 | 0 of 9
S31V/Y52P/S53E | no signal | 0 of 3 | 3 of 9
N30E/S63N | 10 nM | 3 of 3 | 0 of 9
G55P/D106R | no signal | 0 of 3 | 0 of 9
G33K/F59D/G99S | 53 µM | 2 of 3 | 1 of 9
S35P/D54I/A102T | no signal | 0 of 3 | 3 of 9

Repeated from above, the 5 best binders with a signal in all replicates:

changes | Kd (apparent) | replicates with signal | control signals
A101T/D106N | 4.5 nM | 3 of 3 | 2 of 9
S53A/R56V/S107T | 9.7 nM | 3 of 3 | 1 of 9
N30E/S63N | 10 nM | 3 of 3 | 0 of 9
N30Y/S31N/D106V | 24 nM | 3 of 3 | 0 of 9
G26K/K65L/A101G | 37 nM | 3 of 3 | 2 of 9

Source: Engelhart et al. 2022 (doi:10.1038/s41597-022-01779-4), MIT Lincoln Laboratory and A-Alpha Bio; data file from the FLAb repository.